Read-outs that look alike come from different tables or passages of the source.
How the values were obtained:
MsNDH-2 [1] = molecular target: T1, MsNDH-2 (Mycolicibacterium smegmatis, UniProt A0QYD6); assay: Inhibition of MsNDH-2 (NADH oxidation with menadione, absorbance at 340 nm); assay type: biochemical, M. smegmatis; details: same IC50 given in μg/mL to assist comparisons with MICs
MsNDH-2 [2] = molecular target: T1, MsNDH-2; design: method as in PMID 19564154; details: value published earlier; cited from earlier work

Chains of the proteins cited; added tags and fusions are not shown. Residues count along the entry.
UniProt A0QYD6, 1-457: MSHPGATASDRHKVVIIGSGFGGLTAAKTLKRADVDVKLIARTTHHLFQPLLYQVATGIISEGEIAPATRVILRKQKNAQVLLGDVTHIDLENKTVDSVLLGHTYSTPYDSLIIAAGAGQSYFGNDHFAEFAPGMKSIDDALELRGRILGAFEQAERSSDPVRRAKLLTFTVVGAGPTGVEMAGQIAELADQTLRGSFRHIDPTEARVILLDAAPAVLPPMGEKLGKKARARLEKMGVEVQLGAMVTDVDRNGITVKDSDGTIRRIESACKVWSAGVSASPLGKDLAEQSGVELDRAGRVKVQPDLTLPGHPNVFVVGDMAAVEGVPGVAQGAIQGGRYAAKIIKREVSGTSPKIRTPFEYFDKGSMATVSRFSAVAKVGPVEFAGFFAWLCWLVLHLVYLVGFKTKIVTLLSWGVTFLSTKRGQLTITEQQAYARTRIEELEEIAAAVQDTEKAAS

## Polymyxin B [reference compound]
MsNDH-2 [1]
  MsNDH-2 IC50: 2.5 µg/mL
MsNDH-2 [2]
  MsNDH-2 IC50: 1.6 µg/mL

Source: PMC8922281, “Synthesis and In Vitro Biological Evaluation of Quinolinyl Pyrimidines Targeting Type II NADH-Dehydrogenase (NDH-2)” (ACS Infectious Diseases, 2022)
